Experimental data from ChEMBL document CHEMBL4765468, “Development of Novel Tetrahydroquinoline Inhibitors of NLRP3 Inflammasome for Potential Treatment of DSS-Induced Mouse Colitis” (J Med Chem, 2021).

By UniProt entry, the sequences of proteins in these tests, tags left out.
UniProt Q8R4B8, whole entry: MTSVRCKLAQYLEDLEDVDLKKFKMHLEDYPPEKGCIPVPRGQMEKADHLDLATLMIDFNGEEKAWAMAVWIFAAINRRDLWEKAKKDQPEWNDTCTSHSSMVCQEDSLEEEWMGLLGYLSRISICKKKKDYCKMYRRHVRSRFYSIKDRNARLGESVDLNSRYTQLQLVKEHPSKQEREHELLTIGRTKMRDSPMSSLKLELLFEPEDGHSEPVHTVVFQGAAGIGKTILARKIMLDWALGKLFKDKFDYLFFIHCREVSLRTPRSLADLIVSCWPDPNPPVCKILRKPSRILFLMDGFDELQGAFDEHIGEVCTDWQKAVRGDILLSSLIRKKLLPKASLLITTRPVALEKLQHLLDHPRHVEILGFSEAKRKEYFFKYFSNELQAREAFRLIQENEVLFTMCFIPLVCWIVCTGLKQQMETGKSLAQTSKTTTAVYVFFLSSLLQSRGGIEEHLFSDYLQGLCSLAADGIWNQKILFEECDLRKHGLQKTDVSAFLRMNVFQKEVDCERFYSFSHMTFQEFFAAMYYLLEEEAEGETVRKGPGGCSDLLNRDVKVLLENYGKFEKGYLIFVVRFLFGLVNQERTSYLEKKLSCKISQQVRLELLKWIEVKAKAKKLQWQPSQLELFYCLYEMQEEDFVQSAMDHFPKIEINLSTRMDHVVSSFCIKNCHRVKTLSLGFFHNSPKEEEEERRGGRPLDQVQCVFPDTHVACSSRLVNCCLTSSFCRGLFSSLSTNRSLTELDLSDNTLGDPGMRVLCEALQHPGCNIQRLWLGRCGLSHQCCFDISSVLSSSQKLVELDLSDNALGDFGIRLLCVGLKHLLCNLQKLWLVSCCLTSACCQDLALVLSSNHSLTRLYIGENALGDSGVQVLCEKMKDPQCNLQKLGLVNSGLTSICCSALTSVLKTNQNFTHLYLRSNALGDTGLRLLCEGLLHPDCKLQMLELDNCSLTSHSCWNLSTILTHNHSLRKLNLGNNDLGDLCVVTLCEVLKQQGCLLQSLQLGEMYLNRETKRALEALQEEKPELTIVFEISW
UniProt Q9NPP4, whole entry: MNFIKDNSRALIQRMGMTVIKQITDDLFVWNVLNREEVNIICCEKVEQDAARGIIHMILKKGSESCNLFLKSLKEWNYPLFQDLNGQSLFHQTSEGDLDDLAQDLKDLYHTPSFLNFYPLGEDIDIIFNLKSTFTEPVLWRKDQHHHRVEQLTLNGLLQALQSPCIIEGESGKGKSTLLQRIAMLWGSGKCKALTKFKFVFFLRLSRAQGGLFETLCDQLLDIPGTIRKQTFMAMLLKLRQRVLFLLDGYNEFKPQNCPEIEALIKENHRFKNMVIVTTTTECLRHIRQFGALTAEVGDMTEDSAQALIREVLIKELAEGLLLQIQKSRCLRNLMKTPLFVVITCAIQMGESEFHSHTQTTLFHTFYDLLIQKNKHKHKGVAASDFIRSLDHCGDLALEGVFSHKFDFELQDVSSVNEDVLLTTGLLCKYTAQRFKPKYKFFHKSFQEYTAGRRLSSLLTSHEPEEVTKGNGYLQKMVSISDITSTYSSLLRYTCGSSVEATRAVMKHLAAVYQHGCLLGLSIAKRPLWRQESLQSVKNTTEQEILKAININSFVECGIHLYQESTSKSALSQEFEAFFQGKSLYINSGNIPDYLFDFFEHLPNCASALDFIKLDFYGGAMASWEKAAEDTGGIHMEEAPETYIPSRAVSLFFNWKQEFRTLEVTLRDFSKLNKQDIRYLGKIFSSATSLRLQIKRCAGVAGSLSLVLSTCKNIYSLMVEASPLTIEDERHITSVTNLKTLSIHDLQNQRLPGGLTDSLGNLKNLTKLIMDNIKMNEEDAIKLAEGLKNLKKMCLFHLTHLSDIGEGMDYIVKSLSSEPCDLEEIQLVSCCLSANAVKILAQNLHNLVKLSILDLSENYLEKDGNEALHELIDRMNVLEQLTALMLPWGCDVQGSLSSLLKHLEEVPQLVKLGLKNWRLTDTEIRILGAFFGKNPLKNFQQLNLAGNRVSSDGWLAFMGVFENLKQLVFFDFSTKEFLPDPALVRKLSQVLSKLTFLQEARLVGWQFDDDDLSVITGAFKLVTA

What was measured:
Assay type in all cases: tissue-based
Settings in all cases: dose 5-15 µM, time 28.0 hrs
[1] = target: NACHT, LRR and PYD domains-containing protein 3 (Mus musculus) (UniProt Q8R4B8); experiment: Inhibition of NLRP3 inflammasome activation in PMA-stimulated mouse BMDM cells assessed as reduction in IL-1beta secretion at 5 to 15 uM pre-treated for 24 hrs followed by stimulation with LPS for 3 hrs and ATP for 1 hr by ELISA analysis
[2] = target: T1, Interferon-inducible protein AIM2 (Homo sapiens) (UniProt O14862); experiment: Inhibition of AIM2 in PMA-stimulated human THP-1 cells transfected with poly(dA:dT) assessed as reduction in IL-1beta production at 5 to 15 uM pre-treated for 24 hrs followed by stimulation with LPS for 4 hrs by ELISA analysis
T1 sequence (whole entry): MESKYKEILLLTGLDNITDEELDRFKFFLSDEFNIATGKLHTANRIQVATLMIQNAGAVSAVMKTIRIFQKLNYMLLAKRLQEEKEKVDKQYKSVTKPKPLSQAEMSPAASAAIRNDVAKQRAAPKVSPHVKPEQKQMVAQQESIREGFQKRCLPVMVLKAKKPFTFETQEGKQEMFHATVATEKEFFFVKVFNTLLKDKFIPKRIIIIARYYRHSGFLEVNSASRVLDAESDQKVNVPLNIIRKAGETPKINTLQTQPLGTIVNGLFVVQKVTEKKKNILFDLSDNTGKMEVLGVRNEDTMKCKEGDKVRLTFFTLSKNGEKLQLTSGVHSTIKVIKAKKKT

[3] = target: NLR family CARD domain-containing protein 4 (Homo sapiens) (UniProt Q9NPP4); experiment: Inhibition of NLRC4 in PMA-stimulated human THP-1 cells assessed as reduction in IL-1beta production at 5 to 15 uM pre-treated for 24 hrs followed by stimulation with LPS for 3 hrs and Salmonella typhimurium flagellin for 1 hr by ELISA analysis

Q: How did the inhibition [1] turn out when `CC(=O)c1ccc(S(=O)(=O)N(c2ccc3c(c2)N(S(C)(=O)=O)CCC3)S(=O)(=O)c2ccc(C(C)=O)cc2)cc1` was run?
A: The inhibition was “Active”.

Q: What about the inhibition [2] of the same molecule?
A: Its inhibition is “inactive”.

Q: What about the inhibition [3] of the same molecule?
A: Its inhibition is “inactive”.

Activity calls are given as the source filed them. No cut-off for these calls is given here.
